For one compound, Ki and pA2 results are on record in patent US6133291A, “N-(imidazolylalkyl)substituted cyclic amines as histamine-H3 agonists or antagonists” (Schering Corporation, priority 1998, dated 2000).

Sequences of proteins named here, by UniProt entry; tags and fusion partners are left off.
UniProt Q9JI35, whole entry: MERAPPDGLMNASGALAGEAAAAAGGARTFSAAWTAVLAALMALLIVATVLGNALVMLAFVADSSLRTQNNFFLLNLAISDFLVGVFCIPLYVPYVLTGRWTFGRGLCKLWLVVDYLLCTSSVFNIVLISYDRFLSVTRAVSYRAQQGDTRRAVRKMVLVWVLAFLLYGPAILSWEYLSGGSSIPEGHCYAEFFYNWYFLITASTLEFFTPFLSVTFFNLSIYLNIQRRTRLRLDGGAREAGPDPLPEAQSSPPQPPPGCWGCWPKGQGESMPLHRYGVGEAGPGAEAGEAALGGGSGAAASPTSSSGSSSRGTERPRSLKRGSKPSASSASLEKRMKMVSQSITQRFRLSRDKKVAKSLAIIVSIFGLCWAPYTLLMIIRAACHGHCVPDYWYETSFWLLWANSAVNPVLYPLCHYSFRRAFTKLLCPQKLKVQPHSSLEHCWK

SMILES strings stand for the structures. Only a part of the results on these compounds is given; other tests are left out.

In test [1] the target is T1, H3 receptors (Cavia porcellus, UniProt Q9JI35). The experiment in a line: H3-Receptor Binding Assay (guinea pig brain membranes, [3H]R-α-methylhistamine or [3H]Nα-methylhistamine). To be noted: HCl salt, pH 7.5, 30° C., 30 min. As to the method:
(§1) The inventive compounds can readily be evaluated to determine activity at H3 receptors by known methods, including, for example, the guinea pig brain membrane assay and the guinea pig neuronal ileum contraction assay, both of which are described in U.S. Pat. No. 5,352,707.
The source of the H3 receptors in this experiment was guinea pig brain. The animals weighed 400-600 g. The brain tissue was homogenized with a solution of 50 mM Tris, pH 7.5. The final concentration of tissue in the homogenization buffer was 10% w/v. The homogenates were centrifuged at 1,000× g for 10 min. in order to remove clumps of tissue and debris. The resulting supernatants were then centrifuged at 50,000× g for 20 min. in order to sediment the membranes, which were next washed three times in homogenization buffer (50,000× g for 20 min. each). The membranes were frozen and stored at -70° C. until needed.
All compounds to be tested were dissolved in DMSO and then diluted into the binding buffer (50 mM Tris, pH 7.5) such that the final traction was 2 μg/ml with 0.1% DMSO. Membranes were then added (400 μg of protein) to the reaction tubes. […] Bound ligand was separated from unbound ligand by filtration, and the amount of radioactive ligand bound to the membranes was quantitated by liquid scintillation spectrometry. […]

Test [2] addresses T1, H3 receptors. Briefly: pA2 at H3 receptor (guinea pig neuronal ileum contraction assay). To be noted: HCl salt; pA2=-logEC50 as defined by J. Hey.
Text: as §1
pA2=-logEC50, as defined by J. Hey, Eur. J. Pharmacol., (1995), Vol. 294, 329.

The term Ki denotes the equilibrium dissociation constant of an inhibitor or competing ligand from its target. One may read the pA2 as the negative logarithm of the molar antagonist concentration that doubles the agonist concentration needed for the same response. As for `FC(F)(F)Oc1cccc(NC2CCN(CCCCc3c[nH]cn3)CC2)c1`, the Ki in test [1] amounted to 7 nM. Also, the pA2 in test [2] was 8.1.
